The conditions of data set [1]: human, in vivo.
Data set [2] is described as follows: Plasma concentrations of tamoxifen and its metabolites in breast cancer patients on tamoxifen, by HPLC-tandem mass spectrometry. To be noted: patients receiving CYP2D6 inhibitors concomitantly with TAM.

Consider 4-hydroxy-tamoxifen [4-OH-tamoxifen], for which the “plasma concentration, mean ±SD” value in data set [1] is 8.91 ± 7.71 ng/mL. For the compound `CC/C(=C(\c1ccccc1)c1ccc(OCCN(C)C)cc1)c1ccccc1` [Tamoxifen], the “mean plasma concentration (±SD)” value in data set [2] was determined as 180.10 ± 61.25 ng/mL.
